Measurements taken from PubChem BioAssay AID623877 (Johns Hopkins Ion Channel Center, 2012).
The entries are a selection whose mix differs from that of the whole data set. Some structures show a salt or complex split into parts, the way the source records it. The source made the active and inactive calls.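 The calls were made as follows: active = fluorescence-ratio B-score plate-corrected deviation score at least 3 library SD below zero, with starting fluorescence score within 5 deviations; inactive = the rest.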

Amino acid sequences for entries named in this document (tags omitted).
UniProt Q8BHY3, whole entry: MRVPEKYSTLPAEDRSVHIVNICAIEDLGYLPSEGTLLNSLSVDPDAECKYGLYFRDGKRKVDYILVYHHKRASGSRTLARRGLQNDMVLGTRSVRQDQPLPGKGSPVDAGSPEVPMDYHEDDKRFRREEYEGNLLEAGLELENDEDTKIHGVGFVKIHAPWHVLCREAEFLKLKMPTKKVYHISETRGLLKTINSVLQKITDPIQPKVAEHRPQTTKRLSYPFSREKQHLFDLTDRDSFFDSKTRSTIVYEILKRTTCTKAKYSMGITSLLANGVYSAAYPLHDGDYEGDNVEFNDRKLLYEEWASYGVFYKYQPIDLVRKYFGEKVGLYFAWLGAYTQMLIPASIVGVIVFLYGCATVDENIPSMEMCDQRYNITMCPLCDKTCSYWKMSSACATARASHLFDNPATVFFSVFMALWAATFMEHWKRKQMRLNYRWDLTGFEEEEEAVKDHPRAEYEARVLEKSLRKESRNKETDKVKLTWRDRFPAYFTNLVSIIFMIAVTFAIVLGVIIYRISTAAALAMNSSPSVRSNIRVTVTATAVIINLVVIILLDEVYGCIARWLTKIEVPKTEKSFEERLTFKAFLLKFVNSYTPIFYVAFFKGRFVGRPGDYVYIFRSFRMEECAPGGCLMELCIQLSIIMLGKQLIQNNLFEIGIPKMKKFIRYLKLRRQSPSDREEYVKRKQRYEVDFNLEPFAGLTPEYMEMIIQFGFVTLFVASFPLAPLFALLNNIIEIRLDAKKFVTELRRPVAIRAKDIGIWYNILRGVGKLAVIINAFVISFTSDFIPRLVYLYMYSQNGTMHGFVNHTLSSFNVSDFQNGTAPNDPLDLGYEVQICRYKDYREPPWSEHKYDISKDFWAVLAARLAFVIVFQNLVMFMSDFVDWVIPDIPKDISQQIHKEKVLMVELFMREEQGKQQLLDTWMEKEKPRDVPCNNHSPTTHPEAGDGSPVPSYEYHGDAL

target: Anoctamin-1 (Mus musculus) (UniProt Q8BHY3); assay: mouse ANO1 channel activation – cell-based, HTS, primary screen (AID 623877); conditions: HEK293 TMEM16A/YFP-H148Q/I152L, iodide quench fluorescence, at 10 µM

| SMILES | outcome |
| --- | --- |
| CN(C)CCOC(=O)C(O)(c1ccccc1)C1CCCCC1 (centres undefined) | inactive |
| O=P(Nc1nc2ccccc2s1)(c1ccccc1)c1ccccc1 | inactive |
| C[C@H]1OP(=O)(Oc2ccccc2)[C@H](O)[C@H](O)[C@H]1N=[N+]=[N-] (some centres undefined) | inactive |
| COc1ccc(NP(C)(=O)Oc2ccccc2OC)cc1 (centres undefined) | inactive |
| COc1ccc(OP(C)(=O)Nc2cccc(Br)c2)cc1 (centres undefined) | inactive |
| COc1ccc(N)c([N+](=O)[O-])c1[N+](=O)[O-] | inactive |
| O=P(Nc1ccccn1)(c1ccc(Br)cc1)c1ccc(Br)cc1 | inactive |
| CN(C)C1(CNC(=O)c2ccc(Cl)c(S(N)(=O)=O)c2)CCCCC1 | inactive |
| Cc1c(C(c2ccc3c(c2)OCO3)c2c(C)n(C)n(-c3ccccc3)c2=O)c(=O)n(-c2ccccc2)n1C.O=[N+]([O-])c1cc([N+](=O)[O-])c(O)c([N+](=O)[O-])c1 | inactive |
| Nc1ccc([As](=O)(O)c2ccc([N+](=O)[O-])cc2)cc1 | inactive |
| C(Cc1nn[nH]n1)Cc1nn[nH]n1 | inactive |
| O=C(OC1CN2CCC1CC2)c1cccc(Cl)c1 (centres undefined) | inactive |
| O=[N+]([O-])c1ccc(O)c(/C=N/Nc2ccc([N+](=O)[O-])cc2[N+](=O)[O-])c1 | inactive |
| O=[N+]([O-])c1ncn(CCn2cnc([N+](=O)[O-])n2)n1 | inactive |
| O=[N+]([O-])c1ccc(OP2(=O)COCCO2)cc1 (centres undefined) | inactive |
| CC(=O)NC(SC(=S)N(C)C)C(Cl)(Cl)Cl (centres undefined) | inactive |
| O=[As](O)(c1ccccc1)c1ccc(O)cc1 | inactive |
| O=[N+]([O-])c1cc([N+](=O)[O-])c(NCC2CCS(=O)(=O)C2)c([N+](=O)[O-])c1 (centres undefined) | inactive |
| Cc1cc(-c2cccc3ccccc23)c(C)cn1.O=[N+]([O-])c1cc([N+](=O)[O-])c(O)c([N+](=O)[O-])c1 | inactive |
| CCOP(C)(=S)SCC(=O)NC(C)(CC)C(=O)O (centres undefined) | inactive |
| c1nnnn1CCn1cnnn1 | inactive |
| CP(=O)(Nc1ccc(SC(F)(F)F)cc1)Oc1ccc(F)cc1 (centres undefined) | inactive |
| CC(C)C(=O)NC(Sc1ccccc1)C(Cl)(Cl)Cl (centres undefined) | inactive |

| SMILES | outcome |
| --- | --- |
| O=P(Nc1nccs1)(c1ccccc1)c1ccccc1 | inactive |
| Cc1ccccc1NP(C)(=O)Nc1ccccc1C | inactive |
| CP(=O)(Nc1ccc2c(c1)OCCO2)Oc1ccccc1 (centres undefined) | inactive |
| CCc1cc(O)c([N+](=O)[O-])c(C)c1[N+](=O)[O-] | inactive |
| CP(=O)(Nc1ccccc1F)Oc1ccccc1 (centres undefined) | inactive |
| CC(C)(C)C(=O)NC(Sc1ccccc1)C(Cl)(Cl)Cl (centres undefined) | inactive |
| CC(C)c1ccc(OP(C)(=O)Nc2ccc(SC(F)(F)F)cc2)cc1 (centres undefined) | inactive |
| O=P1(Nc2nc3ccc(Cl)cc3s2)COc2ccccc2O1 (centres undefined) | inactive |
| CCOc1ccc(C2=NCC(CBr)S2)cc1 (centres undefined) | inactive |
| COc1ccc2c(c1O)-c1c(O)c(OC)cc3c1[C@H](C2)[N+](C)(C)CC3.O=[N+]([O-])c1cc([N+](=O)[O-])c([O-])c([N+](=O)[O-])c1[O-] | inactive |
| CC(=O)Nc1ccc([As](=O)(O)O)c(O)c1 | inactive |
| CC(=O)Nc1ccc(Oc2c([N+](=O)[O-])cc([N+](=O)[O-])cc2[N+](=O)[O-])cc1 | inactive |
| N#C/C(=C\c1ccc(N(CCBr)CCBr)cc1)C(N)=O | inactive |
| CC(=O)c1ccc(N2CC2c2ccncc2)cc1 (centres undefined) | inactive |
| COC(=O)C1(C)COP(=O)(NCc2ccccc2)OC1 (centres undefined) | inactive |
| O=C(OC1CN2CCC1CC2)c1ccc([N+](=O)[O-])cc1 (centres undefined) | inactive |
| Cc1ccccc1CN(C)C(=O)COC(=O)C(O)(c1ccccc1)c1ccccc1 | inactive |
| O=C(OCCN1CCN(CCOCc2ccccc2)CC1)C(O)(c1ccccc1)c1ccccc1 | inactive |
| C[C@@H]1C=CCP(=O)(Oc2ccccc2)O1 (some centres undefined) | inactive |
| C[C@H]1OP(=O)(Oc2ccccc2)C[C@@H]2O[C@@H]21 (some centres undefined) | inactive |
| O=P1(N(CCCl)CCCl)OCCC2CCCCN21 (centres undefined) | inactive |
| CCOC(=O)c1ccc(NP(C)(=O)Oc2ccc(F)cc2)cc1 (centres undefined) | inactive |
| COc1ccc(OP(C)(=O)Nc2ccc(SC(F)(F)F)cc2)cc1 (centres undefined) | inactive |

| SMILES | outcome |
| --- | --- |
| CCNC(=S)/N=C(\N)N[N+](=O)[O-] | inactive |
| O=C(NC1CCS(=O)(=O)C1)NP(=S)(Oc1ccccc1)Oc1ccccc1 (centres undefined) | inactive |
| c1ccc(-c2nn[nH]n2)c(-c2nn[nH]n2)c1 | inactive |
| Cc1ccc(NP(=O)(Oc2cccc(C)c2)Oc2cccc(C)c2)nc1 | inactive |
| CP(=O)(Nc1ccccc1)Oc1ccc(F)cc1 (centres undefined) | inactive |
| Cc1ccccc1OP(=O)(Nc1ccccn1)Oc1ccccc1C | inactive |
| CC(NC(=O)COC(=O)C(O)(c1ccccc1)c1ccccc1)c1ccccc1 (centres undefined) | inactive |
| CN(C)C(=O)Oc1noc2ccccc12 | inactive |
| O=[N+]([O-])c1cc([N+](=O)[O-])c(OC2CCCCC2O)c([N+](=O)[O-])c1 (centres undefined) | inactive |
| CCCCCOc1ccc(NP(C)(=O)Oc2ccc(Cl)cc2Cl)cc1 (centres undefined) | inactive |
| O=c1c2cc([N+](=O)[O-])ccc2[nH]c2c([N+](=O)[O-])cc([N+](=O)[O-])cc12 | inactive |
| Cc1c([N+](=O)[O-])cc([N+](=O)[O-])c(Br)c1[N+](=O)[O-] | inactive |
| COC(=O)c1cc2c(s1)N=C(c1ccccc1)N(C)P2(=O)N1CCOCC1 (centres undefined) | inactive |
| Cc1ccc(OP(=O)(Nc2ccccn2)Oc2ccc(C)cc2)cc1 | inactive |
| CC(=O)NC(SC(=S)N(CC(C)C)CC(C)C)C(Cl)(Cl)Cl (centres undefined) | inactive |
| O=C(OC1CN2CCC1CC2)c1ccccc1 (centres undefined) | inactive |
| CCN(CC)CCCOC(=O)C(O)(c1ccccc1)C1CCCCC1 (centres undefined) | inactive |
| CCC(=O)N1C2C3N(C(=O)CC)C1C1N(C(=O)CC)C(C(N1C(=O)CC)N3C(=O)CC)N2C(=O)CC | inactive |
| CCOP(=O)(Nc1ccccc1)OCC | inactive |
| Cc1cc(SC(NC(=O)c2ccc(F)cc2)C(Cl)(Cl)Cl)ncn1 (centres undefined) | inactive |
| Cc1ccc(NP(=O)(Oc2ccccc2F)Oc2ccccc2F)nc1 | inactive |
| CN(C(=O)Cc1ccc(Cl)c(Cl)c1)[C@H]1CCCC[C@@H]1N1CCCC1 | inactive |
| COc1ccccc1OP(C)(=O)Nc1ccc(C)c(C)c1 (centres undefined) | inactive |

| SMILES | outcome |
| --- | --- |
| COc1ccc(OP(C)(=O)Nc2ccccc2Br)cc1 (centres undefined) | inactive |
| O=C(O)c1ccccc1[As](=O)(O)O | inactive |
| CC(=O)Nc1ccc([As](=O)(O)O)cc1 | inactive |
| CCCC1OP(N)(=O)OCC1CC (centres undefined) | inactive |
| O=C1C(O)=C([N+](=O)[O-])C(=O)C(O)=C1[N+](=O)[O-] | inactive |
| Cc1cc(C)cc(OP(C)(=O)Nc2cccc(C(F)(F)F)c2)c1 (centres undefined) | inactive |
| O=P(Nc1nc2ccc(Cl)cc2s1)(c1ccccc1)c1ccccc1 | inactive |
| CCN(N=Nc1nonc1N)c1nonc1N | inactive |
| Nc1cccc2ccc([As](=O)(O)O)cc12 | inactive |
| CP(=O)(OCCOc1ccccc1)OCCOc1ccccc1 | inactive |
| CP(=O)(Nc1ccc(Cl)cc1Cl)Oc1ccccc1 (centres undefined) | inactive |
| CCCCCCCCCCCCCCCC1C[N+](C)(C)CCOP(C)(=O)O1 (centres undefined) | inactive |
| COc1ccc(OP(C)(=O)Nc2ccccn2)cc1 (centres undefined) | inactive |
| COc1ccccc1OP(=O)(Nc1ccc(C)cn1)Oc1ccccc1OC | inactive |
| Cc1ccc(OP(=O)(Nc2nccs2)Oc2ccc(C)cc2)cc1 | inactive |
| Clc1ccc(Cl)c(NC2=NCC(CBr)S2)c1 (centres undefined) | inactive |
| CN(C)CCOC(=O)C(O)(c1ccccc1)C1CCCC1 (centres undefined) | inactive |
| CN1CCCC(OC(=O)C(c2ccccc2)c2ccccc2)C1 (centres undefined) | inactive |
| NC(=O)c1cc([N+](=O)[O-])cc([N+](=O)[O-])c1N | inactive |
| COc1ccccc1OP(C)(=O)Nc1ccc(Br)cc1 (centres undefined) | inactive |
| CN(C(=O)Cc1ccc(Cl)c(Cl)c1)[C@H]1CCCC[C@H]1N1CCCC1 | inactive |
| Cc1ccc(N/C(=N/P(=O)(N2CCOCC2)N2CCOCC2)N2CCOCC2)cc1 | inactive |
| CP(=O)(Nc1ccccn1)Oc1ccccc1 (centres undefined) | inactive |

| SMILES | outcome |
| --- | --- |
| COc1ccccc1OP(C)(=O)Nc1ccc(C)cc1C (centres undefined) | inactive |
| CCc1ccc(OP(C)(=O)O)cc1 | inactive |
| CC(C)CC(=O)NC(Sc1ccc(Cl)cc1)C(Cl)(Cl)Cl (centres undefined) | inactive |
| O=[N+]([O-])c1cc([N+](=O)[O-])c(Nc2ccccn2)c([N+](=O)[O-])c1 | inactive |
| Cc1c(NP(C)(=O)Oc2ccc(C(C)C)cc2)c(=O)n(-c2ccccc2)n1C (centres undefined) | inactive |
| Nc1cc(N)c2nonc2c1[N+](=O)[O-] | inactive |
| Oc1ccccc1CNc1ccccn1 | inactive |
| O=C(NC(Sc1ccncn1)C(Cl)(Cl)Cl)c1ccccc1 (centres undefined) | inactive |
| COc1ccccc1OP(C)(=O)Nc1c(C)n(C)n(-c2ccccc2)c1=O (centres undefined) | inactive |
| O=[N+]([O-])c1cccc2n[nH]nc12 | inactive |
| CC(=O)N1C2C3N(C(C)=O)C1C1N(C(C)=O)C(C(N1C(C)=O)N3C(C)=O)N2C(C)=O | inactive |
| O=C(OCCCN1CCCC1)C(O)(c1ccccc1)C1CCCCC1 (centres undefined) | inactive |
| Cc1ccc(NP(=O)(Oc2ccccc2)Oc2ccccc2)nc1 | inactive |
| CP(=O)(Oc1ccccc1)N1CCOC1=O (centres undefined) | inactive |
| CCc1nc2c(n1)c1c(non1O)c1c2no[n+]1[O-] | inactive |
| O=[N+]([O-])c1cc([N+](=O)[O-])c(CCNc2ccccc2)c([N+](=O)[O-])c1 | inactive |
| CCc1ccc(OP(C)(=O)Nc2cccnc2)cc1 (centres undefined) | inactive |
| CCN(CC)CC(O)COC(=O)C(O)(c1ccccc1)C1CCCCC1 (centres undefined) | inactive |
| COc1ccc(C2=NCC(CBr)S2)cc1 (centres undefined) | inactive |
| COc1ccc(OP(C)(=O)Nc2ccc(Br)cc2)cc1 (centres undefined) | inactive |
| CN(C)C(=O)c1c([N+](=O)[O-])cc([N+](=O)[O-])cc1[N+](=O)[O-] | inactive |
| CC(C)=N/N=C(\N)N[N+](=O)[O-] | inactive |
